The values that follow come from US10562947B2, “Compositions and methods for preventing or treating diseases, conditions or processes characterized by aberrant fibroblast proliferation and extracellular matrix deposition” (MOERAE MATRIX, INC., priority 2011, dated 2020).

By UniProt entry, the sequences of proteins in these tests, tags left out. Where a name states a change or a piece, a line headed by the entry shows the natural chain unless it says otherwise.
UniProt Q9NQU5: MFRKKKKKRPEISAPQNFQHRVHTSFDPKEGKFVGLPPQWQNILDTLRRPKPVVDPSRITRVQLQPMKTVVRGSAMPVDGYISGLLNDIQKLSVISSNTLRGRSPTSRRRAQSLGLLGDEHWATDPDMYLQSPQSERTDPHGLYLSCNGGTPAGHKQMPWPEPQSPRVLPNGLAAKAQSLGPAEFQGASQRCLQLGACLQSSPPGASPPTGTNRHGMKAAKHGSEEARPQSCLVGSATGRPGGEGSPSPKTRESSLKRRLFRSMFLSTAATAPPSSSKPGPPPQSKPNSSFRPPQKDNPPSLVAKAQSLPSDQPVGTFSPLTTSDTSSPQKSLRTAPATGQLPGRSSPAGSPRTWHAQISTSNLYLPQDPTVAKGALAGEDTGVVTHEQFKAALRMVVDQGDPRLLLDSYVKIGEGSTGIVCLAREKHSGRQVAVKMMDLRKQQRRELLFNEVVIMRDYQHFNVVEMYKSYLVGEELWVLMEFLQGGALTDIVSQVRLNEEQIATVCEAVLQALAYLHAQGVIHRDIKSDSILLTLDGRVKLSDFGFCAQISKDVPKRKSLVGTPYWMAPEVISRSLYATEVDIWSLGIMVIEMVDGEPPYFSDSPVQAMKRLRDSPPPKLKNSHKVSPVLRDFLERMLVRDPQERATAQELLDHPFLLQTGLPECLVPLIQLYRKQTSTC
UniProt Q15418, whole entry: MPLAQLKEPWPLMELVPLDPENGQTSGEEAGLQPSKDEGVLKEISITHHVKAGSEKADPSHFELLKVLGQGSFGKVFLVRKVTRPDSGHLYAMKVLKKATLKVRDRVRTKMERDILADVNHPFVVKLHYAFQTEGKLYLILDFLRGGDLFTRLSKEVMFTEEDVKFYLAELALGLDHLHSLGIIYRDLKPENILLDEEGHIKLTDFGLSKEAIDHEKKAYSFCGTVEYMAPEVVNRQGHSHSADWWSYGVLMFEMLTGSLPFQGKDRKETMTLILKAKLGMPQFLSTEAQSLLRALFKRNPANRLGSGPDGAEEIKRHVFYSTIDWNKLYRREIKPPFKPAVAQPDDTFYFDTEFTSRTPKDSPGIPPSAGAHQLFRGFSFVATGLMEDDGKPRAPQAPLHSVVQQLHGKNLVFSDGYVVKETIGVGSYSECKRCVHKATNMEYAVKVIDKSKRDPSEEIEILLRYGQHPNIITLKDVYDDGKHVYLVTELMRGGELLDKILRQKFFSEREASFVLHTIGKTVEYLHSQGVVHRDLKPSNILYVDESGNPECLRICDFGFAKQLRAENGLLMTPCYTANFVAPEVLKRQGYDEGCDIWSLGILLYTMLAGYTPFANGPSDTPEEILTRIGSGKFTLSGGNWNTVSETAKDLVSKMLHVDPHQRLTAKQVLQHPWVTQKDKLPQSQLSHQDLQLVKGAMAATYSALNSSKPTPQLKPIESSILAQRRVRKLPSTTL
UniProt Q9Y243: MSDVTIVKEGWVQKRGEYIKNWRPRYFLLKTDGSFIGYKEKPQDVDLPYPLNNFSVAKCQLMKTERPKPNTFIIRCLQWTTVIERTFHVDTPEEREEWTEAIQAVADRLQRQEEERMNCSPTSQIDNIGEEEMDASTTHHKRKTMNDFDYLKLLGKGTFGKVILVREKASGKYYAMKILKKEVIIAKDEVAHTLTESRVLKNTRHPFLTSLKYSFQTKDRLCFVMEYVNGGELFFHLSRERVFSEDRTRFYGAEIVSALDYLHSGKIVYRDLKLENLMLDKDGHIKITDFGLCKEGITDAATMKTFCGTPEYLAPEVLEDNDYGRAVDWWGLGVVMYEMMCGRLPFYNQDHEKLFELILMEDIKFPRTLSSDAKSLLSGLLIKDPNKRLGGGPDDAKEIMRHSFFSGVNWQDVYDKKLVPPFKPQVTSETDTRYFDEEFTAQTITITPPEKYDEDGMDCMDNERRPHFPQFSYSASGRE

Common to all, as to experiment: Kinase Profiling Assay
Type in all cases: biochemical
Conditions in all cases: 100 μM peptide

One experiment has as its target PAK6(h) (Homo sapiens, UniProt Q9NQU5). The essentials: (§1)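 Off-target screen of MK2 peptide inhibitors, 266 human kinases, n = 2 per activity measurement.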
Another experiment deals with T1, TAO1(h) (Homo sapiens, UniProt Q7L7X3).
T1 sequence (Q7L7X3 1-1001): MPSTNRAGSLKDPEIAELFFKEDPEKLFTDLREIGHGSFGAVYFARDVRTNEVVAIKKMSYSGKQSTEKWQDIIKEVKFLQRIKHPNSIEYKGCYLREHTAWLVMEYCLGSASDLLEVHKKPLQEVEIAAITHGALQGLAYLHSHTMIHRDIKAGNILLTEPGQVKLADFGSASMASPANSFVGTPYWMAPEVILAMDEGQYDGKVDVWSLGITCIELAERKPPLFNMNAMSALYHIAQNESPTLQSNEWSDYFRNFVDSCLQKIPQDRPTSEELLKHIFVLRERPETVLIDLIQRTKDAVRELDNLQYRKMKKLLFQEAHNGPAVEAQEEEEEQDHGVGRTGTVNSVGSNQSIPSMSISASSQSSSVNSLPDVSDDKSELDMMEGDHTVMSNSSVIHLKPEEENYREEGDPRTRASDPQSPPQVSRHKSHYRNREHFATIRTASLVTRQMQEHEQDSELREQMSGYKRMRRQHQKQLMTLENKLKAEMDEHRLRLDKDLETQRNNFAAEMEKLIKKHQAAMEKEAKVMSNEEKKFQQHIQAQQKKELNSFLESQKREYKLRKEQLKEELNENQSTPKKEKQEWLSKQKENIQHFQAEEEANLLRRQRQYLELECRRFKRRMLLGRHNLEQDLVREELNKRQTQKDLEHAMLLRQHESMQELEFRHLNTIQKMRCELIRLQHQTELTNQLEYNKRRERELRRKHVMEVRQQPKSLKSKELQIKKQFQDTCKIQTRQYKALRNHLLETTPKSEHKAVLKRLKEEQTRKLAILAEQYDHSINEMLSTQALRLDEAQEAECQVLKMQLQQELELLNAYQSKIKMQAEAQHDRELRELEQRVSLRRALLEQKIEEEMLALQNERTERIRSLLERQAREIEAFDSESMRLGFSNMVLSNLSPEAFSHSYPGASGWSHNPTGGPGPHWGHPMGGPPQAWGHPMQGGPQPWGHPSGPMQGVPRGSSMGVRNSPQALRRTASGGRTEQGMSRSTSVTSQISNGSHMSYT
The essentials:
as §1

A further experiment concerns the target cKit(V654A)(h) (Homo sapiens, UniProt P10721, V654A). A digest of the protocol: as §1
The next experiment addresses T2, Rsk1(h) (Homo sapiens, UniProt Q15418).
T2 construct: purchased Millipore (IC50 Profiler Express service)
The essentials: as §1

For a further experiment, the target named is PKBγ(h) (Homo sapiens, UniProt Q9Y243). The essentials: as §1
The target in the next experiment is T3, CHK1(h) (Homo sapiens, UniProt O14757).
T3 sequence (O14757 1-476): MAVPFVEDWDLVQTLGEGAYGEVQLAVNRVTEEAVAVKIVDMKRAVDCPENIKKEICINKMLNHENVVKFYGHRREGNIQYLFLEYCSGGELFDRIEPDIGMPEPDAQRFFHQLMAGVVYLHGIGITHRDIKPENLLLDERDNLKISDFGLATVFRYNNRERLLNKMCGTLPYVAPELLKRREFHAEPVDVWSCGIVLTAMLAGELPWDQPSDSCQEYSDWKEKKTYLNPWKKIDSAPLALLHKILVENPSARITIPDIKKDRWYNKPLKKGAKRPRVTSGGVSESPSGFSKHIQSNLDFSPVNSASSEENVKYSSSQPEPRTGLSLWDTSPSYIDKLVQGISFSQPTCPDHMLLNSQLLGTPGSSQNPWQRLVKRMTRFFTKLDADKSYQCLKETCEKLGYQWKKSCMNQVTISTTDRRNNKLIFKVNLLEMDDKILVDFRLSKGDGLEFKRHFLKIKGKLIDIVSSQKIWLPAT
The essentials:
as §1

For another experiment, the target named is FGFR2(N549H)(h) (Homo sapiens, UniProt P21802, N549H). On the procedure:
Every kinase activity measurement was conducted in duplicate.
In addition to determining the IC50 of the compound, the specificity of MK2 inhibitory peptides was assessed by examining activities of all 266 human kinases available for testing in the Millipore kinase profiling service (Table 1).

As to “YARAAARQARAKALNRQLGVA (Mammalian) [MMI-0200]”, the “PAK6(h) % activity” value in the experiment with PAK6(h) amounted to 105%. Also, the “TAO1(h) % activity” value in the experiment with TAO1(h) was found to be 105%. Also, the “cKit(V654A)(h) % activity” value with cKit(V654A)(h) came out at 113%. Besides, in the experiment with Rsk1(h), the “Rsk1(h) % activity” value turned out to be 102%. In addition, the “PKBγ(h) % activity” value with PKBγ(h) was found to be 103%. Further, the “CHK1(h) % activity” value with CHK1(h) came out at 115%. Besides, in the experiment with FGFR2(N549H)(h), the “FGFR2(N549H)(h) % activity” value amounted to 104%.
